Antibody variant affinities, Ab-14 light chain, assay B

Target peptide (SARS-CoV-2 spike, HR2 region): PDVDLGDISGINAS

Each scFv is VH, three GGGGS repeats, VL, as in the parent Ab-14, and differs from it in the CDRs of the light chain only.
VH: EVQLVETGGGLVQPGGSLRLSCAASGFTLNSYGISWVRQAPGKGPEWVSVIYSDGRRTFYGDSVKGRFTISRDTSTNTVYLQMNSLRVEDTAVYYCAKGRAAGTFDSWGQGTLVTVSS
VL: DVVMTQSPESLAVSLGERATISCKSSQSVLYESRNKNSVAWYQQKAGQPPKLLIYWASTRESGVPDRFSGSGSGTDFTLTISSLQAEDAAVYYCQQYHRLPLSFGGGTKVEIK

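Phage display of a naive human antibody library on the peptide gave the parent. Designed CDR sequences, proposed from the first random library and measured here. Several design methods are mixed in this list. In AlphaSeq, yeast of one mating type display the scFv and yeast of the other type display the target. Mating (16 h, 30 °C) was followed by selection of diploids and sequencing of their barcodes. Scores were corrected for input abundance and mapped to Kd with protein pairs of known affinity run in the same pool. There are six technical replicates.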

Each variant is given by its three light chain CDRs, as the data file delimits them; those of the parent are KSSQSVLYESRNKNSVA, WASTRES, QQYHRLPLS. Numbers give log10(Kd / nM), so 0 is 1 nM and 3 is 1 µM. Smaller is tighter. The mean shown is taken over the replicates in which the pair was detected. "n.d." marks a missing value. The strain was present, yet no cells mated with the target were sequenced in that replicate, which points to weak or no binding. The list is sorted by this average, lowest first, undetected variants last. The range of this assay differs from that of the first round, and the authors advise against merging the two. The authors averaged sequences with at least three values out of six and counted those with two or fewer as poor binders. The parent sequence was in this pool as ten entries: three were never detected, three once, and four in most replicates, with averages from 0.34 to 2.37. Three control strains display no target. For all light chain designs, 4% of the pairings with them gave a signal, with a median of 2.64 and one signal in twenty below 1.59, so weak values seen in few replicates may be background.

CDR-L1	CDR-L2	CDR-L3	log10 Kd (nM) by replicate	mean log10 Kd (nM)
VLSASELYEDRPKNSVA	NASQRES	QQYHRLPLS	-0.06 / -0.12 / -0.26 / -0.62 / -0.34 / 0.06	-0.22
KCDQSQDYESRNKNNVA	NASQRED	QQYHRLPLS	-0.13 / -0.30 / -0.11 / -0.37 / -0.20 / -0.14	-0.21
KMSQEAMMLSRNQNSVA	QASTREQ	QQYHRLPLS	-0.02 / -0.05 / -0.16 / -0.38 / -0.19 / -0.11	-0.15
KVSIEVLMGDRNKNSVA	DASTRES	QQYHRLPLS	0.01 / 0.05 / -0.36 / -0.27 / -0.13 / -0.12	-0.13
KQSQSVLYESRNKNSVA	DGSTRES	QQYHRLPLD	-0.04 / -0.07 / -0.09 / -0.37 / -0.04 / 0.00	-0.10
KLPQSDLYESRNKNSVA	NASQRES	QQYHRLPLS	-0.15 / -0.21 / 0.00 / -0.08 / -0.07 / -0.05	-0.09
KSAFSDLNESRNFNSVA	DASTRES	QQYHRLPLS	0.01 / -0.08 / -0.05 / -0.28 / -0.12 / 0.03	-0.08
KFSQSVLYESRNQNSVA	EASTRES	QQYHRLPLS	0.12 / -0.11 / 0.05 / -0.33 / -0.30 / 0.14	-0.07
KLDPSDLGESRNKNSVA	HASQREI	QQYHQLPLS	0.01 / 0.17 / -0.25 / -0.14 / -0.13 / -0.07	-0.07
KMPQSWLYDSQNSNSVA	HASQRMS	QQYHRLPLS	0.06 / 0.00 / -0.24 / -0.32 / -0.09 / 0.20	-0.06
KLQQSQLYESRNFNSVA	NASTRED	QQYHRLPLS	0.33 / 0.19 / 0.09 / 0.03 / 0.12 / 0.27	0.17
VLQQSELYESRNKNSVA	DASTREE	QQYHRLPLS	0.40 / 0.30 / 0.14 / 0.03 / 0.01 / 0.29	0.20
KVEGSHLYESRNGNSVA	NASTREH	QQYHRLPLS	0.55 / 0.41 / 0.42 / 0.15 / 0.10 / 0.26	0.31
KVSQSNLYESRNKNSVA	NASTRLS	QQYHRLPLS	0.31 / 0.40 / 0.47 / 0.11 / 0.26 / 0.33	0.31
KLSQSTLYESRNPNSVA	NASTRES	QQYHRLPLS	0.63 / 0.05 / 0.29 / 1.29 / 0.06 / 0.54	0.48
HLTDTVMQGSYYRNSVA	QESTRAQ	QQYHRLPLS	0.73 / 0.59 / 0.61 / 0.32 / 0.25 / 0.48	0.50
MMSQVWGSGQRHRNNVA	QTSTREP	QQYDRLPLI	0.46 / 0.83 / 0.33 / 0.48 / 0.49 / 0.81	0.57
KISQSVLYESRNKNSVA	WASTRES	QQYARLPLS	0.51 / 0.72 / 0.94 / 0.35 / 0.88 / 0.85	0.71
MMSQVWGMGQRHRNNVA	QTSTREP	QQYDRLPLI	0.88 / 0.62 / 0.55 / 0.63 / 1.13 / 0.61	0.74
IVSQSVLGESRNINSVA	QTSERNY	QQYDRLPLS	0.87 / 0.42 / 1.12 / 0.89 / 0.39 / 0.84	0.76
KLQQSVLMGSRNKNSVA	QASTRMV	QAYHRLPLS	0.72 / 1.07 / 0.74 / 0.71 / 0.88 / 0.68	0.80
KSSQSWLYESRNFWSVA	DASTRES	QQYHRLPLS	0.69 / 0.16 / 0.52 / 1.30 / 0.60 / 1.80	0.84
KLRQQTLYETRNKNSVA	MASTREE	QQYHRLPLS	0.64 / 1.59 / 0.43 / 1.62 / 0.48 / 1.29	1.01
KSSQSVLYESVNKNSVA	WASTRES	QQYHRLPLC	n.d. / 0.90 / n.d. / n.d. / 1.38 / n.d.	1.14
KVSQSVLQGDRNKSSVA	EASTREM	QQYHRLPLS	1.81 / 1.80 / 1.19 / 1.88 / 1.59 / 1.50	1.63
TISQMWNMGQFAINSVA	QAELRND	QQYDRLPLT	2.15 / 2.23 / 2.35 / 1.84 / 1.78 / 2.00	2.06
KSSQAVPYESRNKNSVA	WASTRES	QQYHRLPLS	2.30 / 2.18 / 1.59 / 2.51 / 3.65 / 1.91	2.36
KLSGLMQSSKFAKNNVA	ENNTREK	QQYDRLPLS	n.d. / n.d. / 2.37 / 3.22 / 2.78 / 2.74	2.78
MLQIIPNGYMKMRSNVA	DGSLVRM	QQYARLPLM	n.d. / n.d. / n.d. / n.d. / n.d. / n.d.	n.d.
TISQSVNMTSKGKNSVA	QAEMRES	QQYDRLPLS	n.d. / n.d. / n.d. / n.d. / n.d. / n.d.	n.d.
KSLQSVLYESRNKNSVA	HYSTRED	YNYPRLPLS	n.d. / n.d. / n.d. / n.d. / n.d. / n.d.	n.d.
KLSQSVRMESFQKDNVA	ENSTREA	QDYHRLPLS	n.d. / n.d. / n.d. / n.d. / n.d. / n.d.	n.d.

Picked from the list: the 3 lowest averages where every replicate gave a value.

CDR-L1	CDR-L2	CDR-L3	log10 Kd (nM) by replicate	mean log10 Kd (nM)
VLSASELYEDRPKNSVA	NASQRES	QQYHRLPLS	-0.06 / -0.12 / -0.26 / -0.62 / -0.34 / 0.06	-0.22
KCDQSQDYESRNKNNVA	NASQRED	QQYHRLPLS	-0.13 / -0.30 / -0.11 / -0.37 / -0.20 / -0.14	-0.21
KMSQEAMMLSRNQNSVA	QASTREQ	QQYHRLPLS	-0.02 / -0.05 / -0.16 / -0.38 / -0.19 / -0.11	-0.15

The measurements come from Li et al. 2023 (doi:10.1038/s41467-023-39022-2) through the FLAb antibody collection.